{"sequences": {"note": "By UniProt entry, the sequences of proteins in these tests, tags left out.", "UniProt A0A1D6H1G0, entry or part of it": "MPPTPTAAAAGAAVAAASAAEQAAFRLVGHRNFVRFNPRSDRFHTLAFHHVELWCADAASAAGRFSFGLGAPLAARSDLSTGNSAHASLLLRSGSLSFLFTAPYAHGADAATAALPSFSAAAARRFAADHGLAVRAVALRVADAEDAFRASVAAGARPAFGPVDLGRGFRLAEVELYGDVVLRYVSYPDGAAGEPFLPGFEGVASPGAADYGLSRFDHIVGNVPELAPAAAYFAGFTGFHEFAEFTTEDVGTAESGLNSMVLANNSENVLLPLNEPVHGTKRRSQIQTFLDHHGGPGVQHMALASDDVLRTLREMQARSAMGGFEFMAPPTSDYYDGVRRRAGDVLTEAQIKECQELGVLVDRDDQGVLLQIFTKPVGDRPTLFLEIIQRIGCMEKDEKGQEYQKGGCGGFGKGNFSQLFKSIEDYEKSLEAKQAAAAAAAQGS"}, "source": "patent US6555714B1", "about": "“Inhibitors of hydroxyphenylpyruvate dioxygenase and an assay for identification of inhibitors” (Hoechst Aktiengesellschaft, priority 1993, dated 2003)", "target": "anabolic plant HPPD (p-hydroxyphenylpyruvate dioxygenase) from maize (Zea mays, UniProt A0A1D6H1G0)", "type": "biochemical", "description": "A modified form of the method for measuring catabolic HPPDs from human liver has been described by Lindblad (Lindblad, B. (1971) Clin. Chim. Acta 34, 113-121). End-point measurements are used in this case for detecting ^14C—CO2, which is liberated from ^14C-p-hydroxyphenylpyruvate by the enzymatic activity of HPPD.\nTo enrich the anabolic HPPD from plant tissues, young etiolated maize plants were homogenized in extraction buffer (20 mM phosphate buffer pH 7.0; 0.14 M KCl; 0.1 mg/ml glutathione and 1% insoluble polyvinylpyrrolidone) for 3×10 seconds, for example in a Waring blender. The extract was filtered (all other isolation steps were carried out at 4° C.) and centrifuged (20 minutes; 10,000 g). The supernatant was subjected to fractional ammonium sulfate precipitation. […] At this stage, it was possible to store the enzyme at −80° C. following dialysis in a suitable buffer, such as, for example, 20 mM phosphate buffer pH 7.0; 0.14 M KCl; 0.1 mg/ml glutathione.\nThe enzyme assays were performed in 20 ml polyethylene screw-top containers. […]\nAfter preincubation for 5 minutes at 30° C., the reaction was started by injecting 800 μl of ^14C-p-hydroxyphenylpyruvate. The reaction was stopped by injecting 600 μl of 1 N H2SO4, incubation was continued for 15 minutes, and the radioactivity which was liberated was determined on the small filter paper disks in a liquid scintillation counter. […]"}
{"compound": "CS(=O)(=O)c1ccc(C(=O)C2C(=O)CCCC2=O)c(Cl)c1", "note": "[SC-0051, 2-(2-chloro-4-methanesulfonylbenzoyl)-1,3-cyclohexanedione]", "values": [{"measurement": "Inhibition of HPPD (in words)", "setting": "partially purified maize HPPD, FIG. 2", "result": "marked inhibition"}, {"measurement": "IC50", "setting": "read-out: 50% inhibition on the anabolic plant HPPD from maize (IC50 value), under the assay conditions", "result": 0.045, "unit": "µM"}]}
